Patent publication US12295973B2, “Luteinizing hormone receptor binding agents and luteinizing hormone agonists to identify, expand, ablate and modify stem cells” (Fred Hutchinson Cancer Center, priority 2017, dated 2025)

Columns and labels:
mice exposed to L-TBI = assay: Mouse survival after lethal total body irradiation (L-TBI, 840cGy); format: in vivo; settings: hCG given to LHRH-Ant treated mice that had been given L-TBI 1 day prior
Source text: Description. Inhibition of sex steroids, which can be achieved in a reversible fashion pharmacologically, is a well-described strategy to promote lymphopoiesis in the BM and thymus^8,7,14,15. Although the most common method of sex steroid ablation clinically has been to use LHRH-agonists, it was described that an LHRH-Antagonist represents a more rational approach to promote immediate ablation of sex steroids for immune regeneration as it is far more rapid and abrogates the initial surge in sex steroids that LHRH-Agonist cause^16. Taken together with the impact of sex steroid inhibition on HSC function and the rapid regenerative effects of LHRH-Ant, it was hypothesized that LHRH-Ant could represent a rational non-cellular medical countermeasure for mitigating radiation injury and promoting hematopoietic regeneration when administered after hematopoietic insult. To test this hypothesis, a lethal TBI (L-TBI) dose of 840cGy that mediated lethality in more than 90% of mice (FIG. 1A) was used. […] Mouse lethality was a result of bone marrow failure, since transplant of BM Lin-Sca1^+tkit^+ (LSK) cells 3 days after L-TBI completely rescued all mice (FIG. 1B). […] It was then tested if LHRH-Ant could mediate even greater mouse survival when administered multiple times.
Methods. […] To assess mouse survival after radiation, mice were monitored for up to 60 days after TBI. […]

[1] = cited from earlier work
purified LSK cells = assay: In vitro effect of LH in CAFC and CFC assays, mouse LSK cells co-cultured with MS-5; format: cell-based; settings: 0.5 or 5 μg/ml of LH
Procedure: Colony-Forming Cell (CFC) and Cobblestone Areas Forming Cell (CAFC): Assays were performed as previously described with a minor modifications^50. For CFC assays, 5×10^4 BM nucleated cells (BMNC) per 1 mL of Iscove's modified Dulbecco's medium (GIBCO) supplemented with 1.2% methylcellulose (Dow Chemicals, MI), 30% FBS, 2 mM glutamine, 0.1 mM monothiolglycerol, 0.1 mg/ml hemin (Sigma Inc, MO), 0.05 mg gentamicin, 20 ng/mL murine c-kit ligand (Amgen Inc, CA), 6 units/ml human Epogen (Amgen Inc. CA), and 20 ng/mL murine IL-3 (Pepro Tech Inc., NJ) were plated in triplicates in 35-mm non-tissue culture dishes (Corning-Costar, NY). When there were fewer BMNC, all the BM cells were equally plated to Petri dishes in triplicates. Colonies were scored after 10 days of incubation at 37° C. and 5% CO2. […] After 3 weeks of co-culture, CAFCs were scored as phase-dark hematopoietic clones of at least 5 cells beneath the stromal layer using an inverted microscope.
Mouse cells: Two thousand purified LSK cells and MS-5 cells were co-cultured in T-12.5 flasks with or without 0.5 or 5 μg/ml of LH in 4 replicates. […] After three weeks, CAFC were scored. […]

[2] = test system: human HSC1 (CD34+CD38−CD45RA−CD90+); assay: In vitro expansion of human HSC1 in stroma-free culture system; format: cell-based; settings: fresh LH every day
Procedure: Human cells: Human umbilical cord blood (UCB) CD34+ cells were harvested, enriched and cultured as previously described^52. Briefly before enrichment of NHP CD34+ cells, red cells were lysed in ammonium chloride lysis buffer. For enrichment of human CD34+ cells, microbead conjugated anti-CD34 antibody (Miltenyi Biotech) was used. Enriched and sort-purified CD34+ cells were cultured in StemSpan (Stemcell Technologies) supplemented with 100 U/ml penicillin streptomycin (Gibco by Life Technologies) and SCF, TPO and FLT3-L (all Peprotech) (100 ng/ml each) with 50% exchange of culture medium on day 4. Fresh LH was added every day for the total duration of in vitro culture. For CFC assays 400 sorted cells were seeded into 1 ml MethoCult H4435 (StemCell Technologies). Hematopoietic colonies were scored after 12-14 days. Arising colonies were identified as colony forming unit—(CFU-) granulocyte (CFU-G), macrophage (CFU-M), granulocyte-macrophage (CFU-GM) and burst forming unit-erythrocyte (BFU-E). Colonies consisting of erythroid and myeloid cells were scored as CFU-MIX.

Row | Substance | survival after radiation injury in LHRH-Ant treated mice (mice exposed to L-TBI) | half-life [1] | colony formation in cobblestone area-forming cell (CAFC) assay (purified LSK cells) | colony formation in colony-forming cell (CFC) assay (purified LSK cells) | expansion of human HSC1 in vitro [2]
1 | human chorionic gonadotropin [hCG] | abrogated the beneficial effects of LHRH-Ant on survival | several hours | – | – | –
2 | luteinizing hormone [LH] | – | 60 to 120 min | significantly enhanced colony formation | significantly enhanced colony formation | significantly expand human HSC1
